Test results taken from ChEMBL document CHEMBL5390231, “Development of small molecule inhibitors targeting RNA helicase DHX33 as anti-cancer agents” (Bioorg Med Chem Lett, 2023).

What was measured:
[1] = molecular target: T1, ATP-dependent RNA helicase DHX33 (Mus musculus, UniProt Q80VY9); assay: Binding affinity to N-terminal/C-terminal 6x His-tagged recombinant wild type mouse DHX33 transformed in Escherichia coli BL21(DE3)pLysS cells assessed as dissociation constant by ITC analysis
T1 sequence (Q80VY9 whole entry): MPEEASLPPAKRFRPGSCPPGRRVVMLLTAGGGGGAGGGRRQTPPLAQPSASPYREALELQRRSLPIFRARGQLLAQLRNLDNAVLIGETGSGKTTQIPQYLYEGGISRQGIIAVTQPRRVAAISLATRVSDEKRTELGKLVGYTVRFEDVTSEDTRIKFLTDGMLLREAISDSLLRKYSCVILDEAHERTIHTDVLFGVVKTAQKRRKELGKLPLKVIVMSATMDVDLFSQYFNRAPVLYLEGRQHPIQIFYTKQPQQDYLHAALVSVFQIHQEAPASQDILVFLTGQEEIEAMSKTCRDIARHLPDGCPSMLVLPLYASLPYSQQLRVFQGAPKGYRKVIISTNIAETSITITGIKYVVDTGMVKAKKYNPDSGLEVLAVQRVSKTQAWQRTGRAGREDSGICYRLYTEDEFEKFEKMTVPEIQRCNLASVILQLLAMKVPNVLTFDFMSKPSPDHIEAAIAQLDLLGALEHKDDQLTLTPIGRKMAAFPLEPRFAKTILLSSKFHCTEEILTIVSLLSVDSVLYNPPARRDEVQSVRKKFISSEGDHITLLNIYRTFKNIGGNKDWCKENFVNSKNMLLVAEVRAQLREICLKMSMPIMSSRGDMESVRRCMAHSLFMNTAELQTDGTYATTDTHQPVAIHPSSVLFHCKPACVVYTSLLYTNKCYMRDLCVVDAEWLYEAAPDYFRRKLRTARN

[2] = molecular target: T2, ATP-dependent RNA helicase DHX33 (Mus musculus) (UniProt Q80VY9)
T2 sequence (whole entry): T1 sequence (Q80VY9 whole entry)

## Cc1oc(-n2c(C)cc(/C=C(\C#N)c3nc4ccccc4[nH]3)c2C)c(C#N)c1C
[1]
  Kd: 4.7 µM
[2]
  KA: 21.2 10^4/M
